In US20200325505A1, “FILAMENTOUS FUNGI CAPABLE OF PRODUCING VERY LONG CHAIN FATTY ACIDS” (UT-Battelle, LLC, priority 2019, published 2020):

System: Mortierella elongata AG77
Assay: Carbon source utilisation in Biolog 96-well plates, formazan formation after tetrazolium addition
Format: cell-based
Experimental: Two 300 mL volumes of growth medium comprising 1 g/L KH2PO4, 1 g/L MgSO4 7H2O, 0.1 g/L CaCl2, 0.02 g/L FeNaEDTA, 0.1 g/L NaCl, and either 1 g/L NH4NO3 or 20 g/L sucrose were prepared. Acidity was adjusted to 5.5 using NaOH and volumes of growth medium were autoclaved 30 min at 121° C. to sterilize. Aliquots of 200 μL of carbon-free medium or nitrogen-free medium were pipetted into each well of a set of 96-well plates previously prepared with lyophilized putative carbon or nitrogen sources (Biolog Inc., Hayward, Calif.). Inocula were prepared by perforating a culture of Mortierella elongata AG77 grown on 20 g/L potato dextrose agar with a 3 mm diameter cork borer and separating the surface mycelial mat from the solid growth medium using tweezers. Each well was inoculated with one inoculum. Cultures were incubated at 21° C. for 24 hours to allow metabolic changes to stabilize, and then 100 μL of 3 g/L tetrazolium chloride in water was added to each well. Formazan formation was observed visually at 2 h, 24 h, and 148 h.
Conclusions were based on rate and intensity of formazan formation using the 3-4,5-dimethylthiazol-2-yl)-2,5-diphenyltetrazolium bromide (MTT) assay. “Metabolized” indicates more formazan formation than a control containing no carbon source, and “Toxic” indicates less formazan formation than a control containing no carbon source. […]

O=C(O)CCC(=O)C(=O)O [α-Keto-Glutaric Acid]
Metabolized (compound as carbon source, Metabolized = more formazan formation than a control containing no carbon source, observed visually at 2 h, 24 h, 148 h): yes
Carbon sources that Mortierella elongata AG77 can metabolize (summary of Table 3): can metabolize
